The data set deals with placental barrier of the in vitro placenta device (coculture of Bewo trophoblasts and HUVEC). Particulars: injected into maternal or fetal vascular channel at 0.1 μL/min for 1 hour; PI = ratio of sum ROIs trophoblast to vascular channel; FIG. 9A.

Turning to “4 kD TRITC(tetramethylrhodamine)-dextran [4 kD TRITC-Dextran]”, the “mean maternal permeability index (PI) relative to PI from the fetal vasculature” value is recorded as “approximately 2 fold”.

The values above are taken from US20240161653A1, “IN VITRO MODEL DEVICE FOR PLACENTAL BARRIER” (CFD Research Corporation, priority 2022, published 2024).
